Assay results from patent US20140100156A1 (SANOFI, priority 2012, published 2014).

Amino acid sequences for entries named in this document (tags omitted). Residues count along the entry.
UniProt P43220, 24-463: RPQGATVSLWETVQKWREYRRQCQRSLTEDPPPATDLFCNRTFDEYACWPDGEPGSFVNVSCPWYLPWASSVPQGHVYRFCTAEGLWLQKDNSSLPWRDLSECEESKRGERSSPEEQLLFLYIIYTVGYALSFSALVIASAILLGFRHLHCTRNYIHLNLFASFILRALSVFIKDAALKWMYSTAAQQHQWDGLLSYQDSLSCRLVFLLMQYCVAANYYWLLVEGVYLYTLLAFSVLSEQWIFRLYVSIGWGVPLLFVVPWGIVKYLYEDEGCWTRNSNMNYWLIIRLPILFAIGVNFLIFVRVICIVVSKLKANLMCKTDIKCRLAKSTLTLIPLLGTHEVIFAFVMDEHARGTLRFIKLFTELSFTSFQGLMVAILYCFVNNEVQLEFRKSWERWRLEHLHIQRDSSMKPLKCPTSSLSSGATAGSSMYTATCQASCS
UniProt P47871, 26-477: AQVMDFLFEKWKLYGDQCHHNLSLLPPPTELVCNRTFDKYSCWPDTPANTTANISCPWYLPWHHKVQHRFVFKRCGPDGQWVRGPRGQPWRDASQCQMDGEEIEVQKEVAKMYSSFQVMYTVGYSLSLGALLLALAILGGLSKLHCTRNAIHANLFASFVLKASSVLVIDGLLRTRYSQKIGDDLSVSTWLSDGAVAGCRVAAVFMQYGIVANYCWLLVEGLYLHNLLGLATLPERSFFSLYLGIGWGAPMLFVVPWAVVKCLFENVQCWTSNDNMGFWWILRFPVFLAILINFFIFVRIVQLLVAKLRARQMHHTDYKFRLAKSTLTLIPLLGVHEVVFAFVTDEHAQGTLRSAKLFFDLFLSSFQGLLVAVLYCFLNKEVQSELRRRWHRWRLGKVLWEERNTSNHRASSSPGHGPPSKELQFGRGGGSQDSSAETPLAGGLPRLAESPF

Legend:
human GLP-1 receptor = target: T1, human GLP-1 receptor (Homo sapiens, UniProt P43220); experiment: cAMP response (HTRF) of HEK-293 cells stably expressing human GLP-1 receptor; assay type: cell-based; conditions: Table 5; cAMP, HEK-293; read-out: EC50 hGLP-1R
T1 construct: expressed in transfected cells; host or cells: HEK-293

human glucagon receptor = target: T2, human glucagon receptor (Homo sapiens, UniProt P47871); experiment: cAMP response (HTRF) of HEK-293 cells stably expressing human glucagon receptor; assay type: cell-based; conditions: Table 5; cAMP, HEK-293; read-out: EC50 hGlucagon-R
T2 construct: expressed in transfected cells; host or cells: HEK-293

SMILES | EC50 (human GLP-1 receptor) [pM] | EC50 (human glucagon receptor) [pM]
CCCCCCCCCCCCCCCC(=O)N[C@@H](CCC(=O)NCCCC[C@H](NC(=O)[C@H](CCC(N)=O)NC(=O)[C@H](CCCCN)NC(=O)[C@H](CO)NC(=O)[C@H](CC(C)C)NC(=O)[C@H](CC(=O)O)NC(=O)[C@H](CO)NC(=O)[C@@H](NC(=O)[C@H](Cc1ccccc1)NC(=O)[C@@H](NC(=O)CNC(=O)[C@H](CCC(N)=O)NC(=O)[C@@H](CO)NC(=O)[C@@H](N)Cc1c[nH]cn1)[C@@H](C)O)[C@@H](C)O)C(=O)N[C@@H](CC(=O)O)C(=O)N[C@@H](CO)C(=O)N[C@@H](CCCNC(=N)N)C(=O)N[C@@H](CCCNC(=N)N)C(=O)N[C@@H](C)C(=O)N[C@@H](CCC(N)=O)C(=O)N[C@@H](CC(=O)O)C(=O)N[C@@H](Cc1ccccc1)C(=O)N[C@H](C(=O)N[C@@H](CCC(=O)O)C(=O)N[C@@H](Cc1c[nH]c2ccccc12)C(=O)N[C@@H](CC(C)C)C(=O)N[C@@H](CCCCN)C(=O)N[C@@H](CC(N)=O)C(=O)NCC(=O)NCC(=O)N1CCC[C@H]1C(=O)N[C@@H](CO)C(=O)N[C@@H](CO)C(=O)NCC(=O)N[C@@H](C)C(=O)N1CCC[C@H]1C(=O)N1CCC[C@H]1C(=O)N1CCC[C@H]1C(=O)N[C@@H](CO)C(=O)NCC(F)(F)F)[C@@H](C)CC)C(=O)O [compound 103] | 10.1 | 1.7
CCCCCCCCCCCCCCCC(=O)N[C@@H](CCC(=O)NCCCC[C@H](NC(=O)[C@H](CCC(N)=O)NC(=O)[C@H](CCCCN)NC(=O)[C@H](CO)NC(=O)[C@H](CC(C)C)NC(=O)[C@H](CC(=O)O)NC(=O)[C@H](CO)NC(=O)[C@@H](NC(=O)[C@H](Cc1ccccc1)NC(=O)[C@@H](NC(=O)CNC(=O)[C@H](CCC(N)=O)NC(=O)[C@@H](CO)NC(=O)[C@@H](N)Cc1c[nH]cn1)[C@@H](C)O)[C@@H](C)O)C(=O)N[C@@H](CC(=O)O)C(=O)N[C@@H](CO)C(=O)N[C@@H](CCCNC(=N)N)C(=O)N[C@@H](CCCNC(=N)N)C(=O)N[C@@H](C)C(=O)N[C@@H](CCC(N)=O)C(=O)N[C@@H](CC(=O)O)C(=O)N[C@@H](Cc1ccccc1)C(=O)N[C@H](C(=O)N[C@@H](CCC(=O)O)C(=O)N[C@@H](Cc1c[nH]c2ccccc12)C(=O)N[C@@H](CC(C)C)C(=O)N[C@@H](CCCCN)C(=O)N[C@@H](CC(N)=O)C(=O)NCC(=O)NCC(=O)N1CCC[C@H]1C(=O)N[C@@H](CO)C(=O)N[C@@H](CO)C(=O)NCC(=O)N[C@@H](C)C(=O)N1CCC[C@H]1C(=O)N1CCC[C@H]1C(=O)N1CCC[C@H]1C(=O)N[C@@H](CO)C(=O)NCCOCCOCCOCCOCCC(=O)O)[C@@H](C)CC)C(=O)O [compound 104] | 6.5 | 1.1
CCCCCCCCCCCCCCCC(=O)N[C@@H](CCC(=O)NCCCC[C@H](NC(=O)[C@H](CCC(N)=O)NC(=O)[C@H](CCCCN)NC(=O)[C@H](CO)NC(=O)[C@H](CC(C)C)NC(=O)[C@H](CC(=O)O)NC(=O)[C@H](CO)NC(=O)[C@@H](NC(=O)[C@H](Cc1ccccc1)NC(=O)[C@@H](NC(=O)CNC(=O)[C@H](CCC(N)=O)NC(=O)[C@@H](CO)NC(=O)[C@@H](N)Cc1c[nH]cn1)[C@@H](C)O)[C@@H](C)O)C(=O)N[C@@H](CC(=O)O)C(=O)N[C@@H](CO)C(=O)N[C@@H](CCCNC(=N)N)C(=O)N[C@@H](CCCNC(=N)N)C(=O)N[C@@H](C)C(=O)N[C@@H](CCC(N)=O)C(=O)N[C@@H](CC(=O)O)C(=O)N[C@@H](Cc1ccccc1)C(=O)N[C@H](C(=O)N[C@@H](CCC(=O)O)C(=O)N[C@@H](Cc1c[nH]c2ccccc12)C(=O)N[C@@H](CC(C)C)C(=O)N[C@@H](CCCCN)C(=O)N[C@@H](CC(N)=O)C(=O)NCC(=O)NCC(=O)N1CCC[C@H]1C(=O)N[C@@H](CO)C(=O)N[C@@H](CO)C(=O)NCC(=O)N[C@@H](C)C(=O)N1CCC[C@H]1C(=O)N1CCC[C@H]1C(=O)N1CCC[C@H]1C(=O)N[C@@H](CO)C(=O)NCCOCCOCCOCCOCCOCCOCCOCCOCCOCCOCCOCCOCCOCCOCCOCCOCCOCCOCCOCCOCCOCCOCCOCCOCCC(=O)O)[C@@H](C)CC)C(=O)O [compound 105] | 7.9 | 1
CCCCCCCCCCCCCCCCNC(=O)[C@H](CO)NC(=O)[C@@H]1CCCN1C(=O)[C@@H]1CCCN1C(=O)[C@@H]1CCCN1C(=O)[C@H](C)NC(=O)CNC(=O)[C@H](CO)NC(=O)[C@H](CO)NC(=O)[C@@H]1CCCN1C(=O)CNC(=O)CNC(=O)[C@H](CC(N)=O)NC(=O)[C@H](CCCCN)NC(=O)[C@H](CC(C)C)NC(=O)[C@H](Cc1c[nH]c2ccccc12)NC(=O)[C@H](CCC(=O)O)NC(=O)[C@@H](NC(=O)[C@H](Cc1ccccc1)NC(=O)[C@H](CC(=O)O)NC(=O)[C@H](CCC(N)=O)NC(=O)[C@H](C)NC(=O)[C@H](CCCNC(=N)N)NC(=O)[C@H](CCCNC(=N)N)NC(=O)[C@H](CO)NC(=O)[C@H](CC(=O)O)NC(=O)[C@H](CCCCNC(=O)CC[C@H](NC(=O)CCCCCCCCCCCCCCC)C(=O)O)NC(=O)[C@H](CCC(N)=O)NC(=O)[C@H](CCCCN)NC(=O)[C@H](CO)NC(=O)[C@H](CC(C)C)NC(=O)[C@H](CC(=O)O)NC(=O)[C@H](CO)NC(=O)[C@@H](NC(=O)[C@H](Cc1ccccc1)NC(=O)[C@@H](NC(=O)CNC(=O)[C@H](CCC(N)=O)NC(=O)[C@@H](CO)NC(=O)[C@@H](N)Cc1c[nH]cn1)[C@@H](C)O)[C@@H](C)O)[C@@H](C)CC [compound 106] | 210 | 10.5
CCCCCCCCCCCCCCCC(=O)N[C@@H](CCC(=O)NCCCC[C@H](NC(=O)[C@H](CCC(N)=O)NC(=O)[C@H](CCCCN)NC(=O)[C@H](CO)NC(=O)[C@H](CC(C)C)NC(=O)[C@H](CC(=O)O)NC(=O)[C@H](CO)NC(=O)[C@@H](NC(=O)[C@H](Cc1ccccc1)NC(=O)[C@@H](NC(=O)CNC(=O)[C@H](CCC(N)=O)NC(=O)[C@@H](CO)NC(=O)[C@@H](N)Cc1c[nH]cn1)[C@@H](C)O)[C@@H](C)O)C(=O)N[C@@H](CC(=O)O)C(=O)N[C@@H](CO)C(=O)N[C@@H](CCCNC(=N)N)C(=O)N[C@@H](CCCNC(=N)N)C(=O)N[C@@H](C)C(=O)N[C@@H](CCC(N)=O)C(=O)N[C@@H](CC(=O)O)C(=O)N[C@@H](Cc1ccccc1)C(=O)N[C@H](C(=O)N[C@@H](CCC(=O)O)C(=O)N[C@@H](Cc1c[nH]c2ccccc12)C(=O)N[C@@H](CC(C)C)C(=O)N[C@@H](CCCCN)C(=O)N[C@@H](CC(N)=O)C(=O)NCC(=O)NCC(=O)N1CCC[C@H]1C(=O)N[C@@H](CO)C(=O)N[C@@H](CO)C(=O)NCC(=O)N[C@@H](C)C(=O)N1CCC[C@H]1C(=O)N1CCC[C@H]1C(=O)N1CCC[C@H]1C(=O)N[C@@H](CO)C(=O)NCCCCCCCCCCCCO)[C@@H](C)CC)C(=O)O [compound 107] | 188 | 37.8
